Experimental data taken from ChEMBL document CHEMBL2321693, “Optimizing solubility and permeability of a biopharmaceutics classification system (BCS) class 4 antibiotic drug using lipophilic fragments disturbing the crystal lattice” (J Med Chem, 2013).

Tested on: Caco-2
Test: Efflux ratio of permeability from basolateral to apical side to apical to basolateral side in human Caco2 cells
Format: ADME, cell-based
Outline: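 Caco-2 inserts with a 6.5/7.4 pH gradient at 37 °C and 10 μM donor drug. Papp measured in both directions, and the ratio taken as Papp(b−a)/Papp(a−b). Also measured with 1 μM GF120918 (P-gp inhibitor) present. Triplicates.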

- Ratio: 5
SMILES: O=C(O)c1cn(C2CC2)c2cc(N3CCNCC3)c(F)cc2c1=O [CIPROFLOXACIN]
